From patent US6362163B1, “Parathyroid hormone-related peptide analogs” (The General Hospital Corporation, priority 1996, dated 2002)

Amino acid sequences for entries named in this document (tags omitted). Residues count along the entry.
UniProt P49190, 25-550: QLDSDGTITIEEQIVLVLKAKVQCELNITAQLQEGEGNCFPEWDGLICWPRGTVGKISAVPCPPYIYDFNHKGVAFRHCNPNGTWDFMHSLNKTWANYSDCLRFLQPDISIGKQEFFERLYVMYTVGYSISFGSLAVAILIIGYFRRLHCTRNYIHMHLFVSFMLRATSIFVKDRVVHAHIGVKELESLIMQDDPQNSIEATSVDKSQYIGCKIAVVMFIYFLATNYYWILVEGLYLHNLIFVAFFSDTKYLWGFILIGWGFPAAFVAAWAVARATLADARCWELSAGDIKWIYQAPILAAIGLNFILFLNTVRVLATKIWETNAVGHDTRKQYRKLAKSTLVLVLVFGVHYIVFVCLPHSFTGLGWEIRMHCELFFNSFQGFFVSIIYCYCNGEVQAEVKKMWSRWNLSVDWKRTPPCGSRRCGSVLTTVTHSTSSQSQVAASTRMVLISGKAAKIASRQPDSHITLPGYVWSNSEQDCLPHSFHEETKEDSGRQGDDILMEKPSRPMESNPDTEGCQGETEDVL

Key:
[1] = target: T1, PTH-2 receptor (Homo sapiens, UniProt P49190); assay: Competition radioligand binding, COS-7 cells transfected with human PTH-2 receptor; conditions: read-out: Binding IC50, PTH-2 receptor, radioligand 125I-[Nle8,21,Y34]rPTH-(1-34)NH2, 2 hours at room temperature, mean ± s.e.m.
T1 construct: expressed in transfected cells; host or cells: COS-7 cells, transient transfection, vector pcDNAI/Amp
Protocol: (§1) The cDNAs encoding the human PTH/PTHrP receptor (Schipani, E. et al., Endocrinology 132:2157-2165 (1993)) and the human PTH-2 receptor (Usdin, T. et al., J. Biol. Chem. 270:15455-15458 (1995)) were carried on the expression vectors pcDNA-1 and pcDNAI/Amp (InVitrogen, San Diego, Calif.), respectively. COS-7 cells were cultured and transfected as described previously (Lee, C. et al., Mol. Endocrinol. 9:1269-1278 (1995)). Cells were transfected in 24-well plates using plasmid DNA (200 ng/well) purified by cesium chloride/ethidium bromide gradient centrifugation. Ligand binding and cAMP accumulation assays were performed three days after transfection, by which time the cell density reached 500,000±100,000 cells/well.
(§2) Binding reactions were performed as described previously. Id. Each well (final volume: […]) contained 26 fmole of ^125I-[Nle^8,21,Tyr^34]rPTH(1-34)NH2 (100,000 CPM) and various amounts (0.4-300 pmole) of an unlabeled competitor ligand, both diluted in binding buffer (50 mM Tris-HCl, pH 7.7, 100 mM NaCl, 5 mM KCl, 2 mM CaCl, 5% heat-inactivated horse serum, 0.5% heat-inactivated fetal bovine serum). Incubations were at room temperature for 2 hours, except for experiments involving Scatchard analysis, which were performed at 4° C. for 6 hours. At the end of the binding reaction, the cells were rinsed 3 times with 0.5 ml of binding buffer, lysed with 0.5 ml of 5M NaOH, and the entire lysate was counted. Nonspecific binding of tracer (NSB), determined in wells containing 1 μM of [NleTyr^8,21,Tyr^34]rPTH-(1-34)NH2, was ˜1% of total counts added. Maximum specific binding (B0) was calculated as the total radioactivity bound to cells in the absence of unlabeled PTH ligand, minus NSB. […] For Scatchard analyses, homologous competition binding studies were performed that used ^125I-[-NleTyr^8,21,Tyr^34]rPTH-(1-34)NH2 (26 fmole/well) and varying amounts (1.2-300 pmol) of the same unlabeled ligand. Estimates of the number of receptors/cell derived from these studies assumed a single class of binding sites and a transfection efficiency of 20% (Abou-Samra, A. B. et al., Proc. Natl. Acad. Sci (USA) 89:2732-2736 (1992)).

[2] = target: T2, PTH/PTHrP receptor (Homo sapiens, UniProt Q03431); assay: Ligand-induced intracellular cAMP accumulation, COS-7 cells expressing human PTH/PTHrP receptor; format: cell-based; conditions: read-out: cAMP accumulation EC50, PTH/PTHrP receptor, 1h at room temperature, IBMX, mean ± s.e.m.
T2 construct: expressed in transfected cells; host or cells: COS-7 cells, transient transfection, vector pcDNA-1
T2 sequence (Q03431 27-593): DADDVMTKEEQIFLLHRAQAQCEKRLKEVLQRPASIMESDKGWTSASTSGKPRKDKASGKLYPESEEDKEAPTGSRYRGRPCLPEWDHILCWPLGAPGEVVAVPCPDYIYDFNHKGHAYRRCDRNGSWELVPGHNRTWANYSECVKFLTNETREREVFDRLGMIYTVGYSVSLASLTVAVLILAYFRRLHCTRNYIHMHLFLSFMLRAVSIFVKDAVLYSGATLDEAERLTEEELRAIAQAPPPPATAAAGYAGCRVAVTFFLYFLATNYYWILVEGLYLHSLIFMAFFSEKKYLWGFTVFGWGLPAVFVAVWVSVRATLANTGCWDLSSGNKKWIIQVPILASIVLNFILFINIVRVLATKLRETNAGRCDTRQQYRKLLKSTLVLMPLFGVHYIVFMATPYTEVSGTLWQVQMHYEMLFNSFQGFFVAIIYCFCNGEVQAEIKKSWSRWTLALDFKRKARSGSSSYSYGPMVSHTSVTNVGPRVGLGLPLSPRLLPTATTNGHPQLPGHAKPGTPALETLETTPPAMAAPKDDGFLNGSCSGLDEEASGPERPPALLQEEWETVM
Protocol: as §1
(§3) Transfected COS-7 cells were rinsed with […] of binding buffer. 200 μl of IBMX buffer (DMEM containing 2 mM IBMX, 1 mg/ml bovine serum albumin, 35 mM Hepes-NaOH, pH 7.4) and […] of binding buffer or binding buffer containing various amounts of a PTH or PTHrP analog were then added. The plates were incubated for 60 minutes at room temperature. The buffer was then withdrawn and the cells lysed by placing the plates on powdered dry ice and adding 0.5 ml of 50 mM HCl. The acid lysate was diluted 1/30 in dH2O, and an aliquot (5-50 μl) analyzed for cAMP content by radioimmunoassay. […] For antagonist studies, the inhibitor peptide [Leu^11,D-Trp^12]hPTHrP(7-34)NH2or [Trp^23,Tyr^36]hPTHrP-(1-36)N2H was applied to COS-7 cells in 100 μl of binding buffer two minutes prior to the addition of IBMX buffer that contained a near-maximal stimulatory dose (1.5 nM) of [Tyr^34]hPTH-(1-34)NH2 agonist peptide. The cells were then incubated for 30 minutes at room temperature, and the resulting intracellular cAMP was measured by RIA. Data were analyzed using the AssayZap software (Elsevier Science Publishers BV, Cambridge, United Kingdom).

[3] = target: T2, PTH/PTHrP receptor; assay: Competition radioligand binding, COS-7 cells transfected with human PTH/PTHrP receptor; conditions: read-out: Binding IC50, PTH/PTHrP receptor, radioligand 125I-[Nle8,21,Y34]rPTH-(1-34)NH2, 2 hours at room temperature, mean ± s.e.m.
Protocol: as §1, §2

[4] = target: T1, PTH-2 receptor; assay: Ligand-induced intracellular cAMP accumulation, COS-7 cells expressing human PTH-2 receptor; format: cell-based; conditions: read-out: cAMP accumulation EC50, PTH-2 receptor, 1h at room temperature, IBMX, mean ± s.e.m.
Protocol: as §1, §3

Substance | IC50 [1] [nM] | EC50 [2] [nM] | IC50 [3] [nM] | EC50 [4] [nM]
[Tyr^34]hPTH-(1-34)NH2 [[Y34]hPTH-(1-34)NH2, reference compound] | 16 ± 4 | 0.46 ± 0.18 | 39 | 0.6
hpTHrP-(1-14)/[Y34]hPTH-(15-34)NH2 [Hybrid-1] | 606 ± 96 | 0.23 ± 0.04 | 7900 | > 1000
